The assay deals with human α7 receptor (Homo sapiens, UniProt P36544). As to the kind of experiment: α7 NNR flux assay (FDSS Ca assay). The conditions noted are these: positive allosteric modulation; rat GH4C1 cell line stably expressing human α7; acetylcholine 20 μM; % modulation relative to PNU-120596 set to 100%. Here is the method:
In this version of the assay, the human α7 receptor is stably expressed in the rat GH4C1 cell line. The assay was used to identify positive allosteric modulators (PAMs) of the α7 receptor. Activation of the channel was measured by loading cells with the calcium-sensitive fluorescent dye Calcium-4 (Assay kit from Molecular Devices), and then measuring real-time changes in fluorescence upon treatment with test compounds.
The cell line ChanClone GH4C1-nAChRalpha7 from Genionics was seeded from frozen stock in 384-well plates in culture media 2-3 days before experiment to form an approximately 80% confluent layer on the day of experiment.
The cell culture were split into “22.5 cm×22.5 cm”-plates with approximately 100×10^3 cells/cm^2. After four days incubation in a humidified incubator at 37° C. and 5% CO2, it had grown to an 80-90% confluent layer, and the cells were harvested.
Two or three days before the experiment the cells were seeded in 384 well plates from Greiner bio-one (781946, CELLCOAT, Poly-D-Lysine, black, μClear). […]
Culture media were removed from the cell plates and 20 μL loading buffer was added in each well. […] Now the cell plates were ready to run in the Functional Drug Screening System (FDSS) The assay buffer was HBSS with 20 mM HEPES, pH 7.4 and 3 mM CaCl2. […]
Results were calculated as % modulation of test compound compared to the reference PNU-120596 set to 100%.

By UniProt entry, the sequences of proteins in these tests, tags left out. Residues count along the entry.
UniProt P36544, 23-502 limits assumed: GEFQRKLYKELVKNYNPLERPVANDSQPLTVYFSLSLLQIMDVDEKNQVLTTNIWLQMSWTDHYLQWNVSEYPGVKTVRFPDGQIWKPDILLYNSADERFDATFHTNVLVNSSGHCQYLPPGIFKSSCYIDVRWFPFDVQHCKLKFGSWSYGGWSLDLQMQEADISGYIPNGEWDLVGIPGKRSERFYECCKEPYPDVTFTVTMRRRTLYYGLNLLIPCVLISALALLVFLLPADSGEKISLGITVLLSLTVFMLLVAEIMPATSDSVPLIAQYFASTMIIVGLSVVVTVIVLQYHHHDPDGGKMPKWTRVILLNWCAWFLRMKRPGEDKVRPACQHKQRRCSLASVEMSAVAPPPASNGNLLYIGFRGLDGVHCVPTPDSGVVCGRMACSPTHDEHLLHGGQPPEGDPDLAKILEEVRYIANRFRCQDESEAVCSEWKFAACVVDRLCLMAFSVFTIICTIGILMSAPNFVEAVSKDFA

Usually EC50 stands for the midpoint of the concentration-response curve.

With `Cc1cc2cc(CNC(=O)c3oc(C)nc3C)ccc2[nH]1`, the 50% effective concentration (EC50) was determined as 9.5 µM.

Values taken from patent publication US20120252853A1, “Positive allosteric modulators of nicotinic acetylcholine receptor” (H. Lundbeck A/S, priority 2011, published 2012).
